Test results as given in patent US11332499B2, “Cyclic peptides and methods of use thereof” (Regents of the University of Minnesota, priority 2018, dated 2022).
“And” between values parts separate entries of the source, which are not always exact repeats. Identical values can stand only once. Like-named read-outs stand apart in the source and are kept apart here.

By UniProt entry, the sequences of proteins in these tests, tags left out.
UniProt P41149, whole entry: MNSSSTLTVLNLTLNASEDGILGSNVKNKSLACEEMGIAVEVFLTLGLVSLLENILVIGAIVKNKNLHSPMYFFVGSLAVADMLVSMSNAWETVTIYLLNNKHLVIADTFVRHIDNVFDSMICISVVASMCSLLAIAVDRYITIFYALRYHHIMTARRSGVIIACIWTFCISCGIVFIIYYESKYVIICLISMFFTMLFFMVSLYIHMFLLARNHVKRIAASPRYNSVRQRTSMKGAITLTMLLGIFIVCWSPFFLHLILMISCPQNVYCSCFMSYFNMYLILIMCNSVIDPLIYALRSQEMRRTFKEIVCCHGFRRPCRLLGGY
UniProt Q01727, whole entry: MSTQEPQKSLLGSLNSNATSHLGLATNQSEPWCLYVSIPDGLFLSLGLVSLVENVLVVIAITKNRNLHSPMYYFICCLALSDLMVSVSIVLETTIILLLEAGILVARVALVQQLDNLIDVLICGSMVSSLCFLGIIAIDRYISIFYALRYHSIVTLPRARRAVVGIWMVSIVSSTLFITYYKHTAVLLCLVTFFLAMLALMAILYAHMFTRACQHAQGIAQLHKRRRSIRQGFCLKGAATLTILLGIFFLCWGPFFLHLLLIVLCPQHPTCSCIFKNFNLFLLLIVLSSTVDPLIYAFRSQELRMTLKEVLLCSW
UniProt P33033, whole entry: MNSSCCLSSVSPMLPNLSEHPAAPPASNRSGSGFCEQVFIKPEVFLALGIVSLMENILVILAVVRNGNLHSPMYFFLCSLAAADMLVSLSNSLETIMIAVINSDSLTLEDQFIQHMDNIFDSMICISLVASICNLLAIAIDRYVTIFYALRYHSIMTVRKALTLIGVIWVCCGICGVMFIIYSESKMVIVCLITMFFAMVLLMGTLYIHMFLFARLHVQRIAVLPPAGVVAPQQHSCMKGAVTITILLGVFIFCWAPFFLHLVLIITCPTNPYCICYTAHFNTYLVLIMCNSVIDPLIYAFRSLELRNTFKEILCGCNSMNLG
UniProt P56450, whole entry: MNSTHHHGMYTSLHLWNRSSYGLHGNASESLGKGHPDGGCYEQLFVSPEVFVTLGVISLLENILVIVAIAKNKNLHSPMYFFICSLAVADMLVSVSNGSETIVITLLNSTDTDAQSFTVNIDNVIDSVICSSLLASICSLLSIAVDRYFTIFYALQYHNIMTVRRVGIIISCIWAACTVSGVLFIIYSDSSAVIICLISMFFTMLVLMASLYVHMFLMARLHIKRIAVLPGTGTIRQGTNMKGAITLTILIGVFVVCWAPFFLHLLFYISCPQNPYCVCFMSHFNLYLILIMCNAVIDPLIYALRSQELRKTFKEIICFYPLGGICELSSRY

Experiments:
mMC5R = mMC5R (Mus musculus, UniProt P41149); assay: AlphaScreen cAMP assay, agonist and inverse agonist activity, HEK293 cells stably expressing mMC5R; type: cell-based; conditions: for mMC5R Inverse Agonist, percent change from basal: no sigmoidal curve
mMC1R = mMC1R (Mus musculus, UniProt Q01727); assay: AlphaScreen cAMP assay, agonist activity, HEK293 cells stably expressing mMC1R; type: cell-based; conditions: for mMC1R percent maximal stimulatory response: at 100 μM, relative to NDP-MSH
mMC3R = mMC3R (Mus musculus, UniProt P33033); assay: AlphaScreen cAMP assay, agonist activity, HEK293 cells stably expressing mMC3R; type: cell-based; conditions: Table 2; for EC50: read-out: mMC3R EC50, agonist; for mMC3R percent maximal stimulatory response: at 100 μM
mMC4R [1] = biological target: T1, mMC4R (Mus musculus, UniProt P56450); assay: AlphaScreen cAMP assay, agonist activity, HEK293 cells stably expressing mMC4R; type: cell-based; conditions: Table 2; for EC50: read-out: mMC4R EC50, agonist
mMC4R [2] = biological target: T1, mMC4R
[3] = read-out: mMC1R EC50, Table 2, agonist, >100,000 = no agonist activity up to 100 μM

## N=C(N)NCCC[C@@H]1NC(=O)[C@@H]2CCCN2C(=O)[C@H]2CCCN2C(=O)[C@H](Cc2ccccc2)NC(=O)CNC(=O)[C@H](CC(N)=O)NC(=O)[C@H](Cc2ccccc2)NC(=O)[C@H](Cc2ccccc2)NC1=O
mMC5R; Table 2, at 100 μM
  mMC5R Inverse Agonist, percent change from basal: -35% @
mMC1R; [3]
  EC50: > 100 µM
mMC3R
  EC50: > 100 µM
mMC4R [1]
  EC50: > 100 µM

## N=C(N)NCCC[C@@H]1NC(=O)[C@@H]2CCCN2C(=O)[C@H]2CCCN2C(=O)[C@H](Cc2ccccc2)NC(=O)[C@H](CO)NC(=O)[C@H](CC(N)=O)NC(=O)[C@H](Cc2ccccc2)NC(=O)[C@H](Cc2ccccc2)NC1=O
mMC5R; Table 2, at 100 μM
  mMC5R Inverse Agonist, percent change from basal: -30% @
mMC1R; [3]
  EC50: > 100 µM
mMC3R
  EC50: > 100 µM
mMC4R [2]
  selectivity ratio: 7 and 8
mMC4R [1]
  EC50: > 100 µM

## N=C(N)NCCC[C@@H]1NC(=O)[C@@H]2CCCN2C(=O)[C@H]2CCCN2C(=O)[C@H](Cc2ccccc2)NC(=O)[C@H](CC(=O)O)NC(=O)[C@H](CC(N)=O)NC(=O)[C@H](Cc2ccccc2)NC(=O)[C@H](Cc2ccccc2)NC1=O
mMC5R; Table 2, at 100 μM
  mMC5R Inverse Agonist, percent change from basal: -25% @
mMC1R; Table 2
  mMC1R percent maximal stimulatory response: 65% @ 100 μM
mMC3R
  EC50: > 100 µM
mMC4R [2]
  selectivity ratio: 800
mMC4R [1]
  EC50: > 100 µM

## N=C(N)NCCC[C@@H]1NC(=O)[C@@H]2CCCN2C(=O)[C@H]2CCCN2C(=O)[C@H](Cc2ccccc2)NC(=O)[C@H](CCCCN)NC(=O)[C@H](CC(N)=O)NC(=O)[C@H](Cc2ccccc2)NC(=O)[C@H](Cc2ccccc2)NC1=O
mMC5R; Table 2, at 100 μM
  mMC5R percent maximal stimulatory response: 45% @
mMC1R; Table 2
  mMC1R percent maximal stimulatory response: 60% @ 100 μM
mMC3R
  mMC3R percent maximal stimulatory response: 45% @
mMC4R [2]
  selectivity ratio: 250
mMC4R [1]
  EC50: > 100 µM

## CCCC[C@@H]1NC(=O)[C@H](CO)NC(=O)[C@H](CCCNC(=N)N)NC(=O)[C@H](Cc2ccccc2)NC(=O)[C@H](Cc2ccccc2)NC(=O)[C@H](CCCNC(=N)N)NC(=O)[C@@H]2CCCN2C(=O)[C@H]2CCCN2C1=O
mMC5R; read-out: Inverse Agonist mMC5R EC50, Table 7, tested form: TFA
  EC50: > 100 µM
mMC1R; read-out: Agonist mMC1R EC50, Table 7, >100,000 = not stimulated greater than 20% at 100 μM, tested form: TFA
  EC50: > 100 µM

## CC(C)C[C@@H]1NC(=O)[C@H](CC(N)=O)NC(=O)[C@H](Cc2ccccc2)NC(=O)[C@H](Cc2ccccc2)NC(=O)[C@H](CCCNC(=N)N)NC(=O)[C@@H]2CCCN2C(=O)[C@H]2CCCN2C(=O)[C@H](Cc2ccccc2)NC1=O
mMC5R; read-out: mMC5R EC50, Table 2, agonist
  EC50: > 100 µM
mMC1R; Table 2
  mMC1R percent maximal stimulatory response: 80% @ 100 μM
mMC3R
  mMC3R percent maximal stimulatory response: 25% @
mMC4R [1]; at 100 μM
  mMC4R percent maximal stimulatory response: 25% @
